Assay: solubility of the salts
Type: physicochemical

## trans-1-((1R,3S)-6-chloro-3-phenylindan-1-yl)-3,3-dimethylpiperazinium L-tartrate [tartrate salt]
  solubility: 500 µg/mL

Source: US20080269248A1, “Tartrate and Malate Salts of Trans-1-((1R,3S)-6-Chloro-3-Phenylindan-1-Yl)-3,3-Dimethylpiperazine” (H. Lundbeck A/S, priority 2005, published 2008)
